The values below come from patent US11940444B2, “Method of stabilizing molecules without refrigeration using water soluble polymers and applications thereof in performing chemical reactions” (priority 2013, dated 2024).

This series is described as follows: Fluorescence intensity-based thermal unfolding of HSA. Type of series: physicochemical. The following applies: pullulan film vs solution, tryptophan emission intensity. As for the experimental part:
Human serum albumin (60 pM final concentration) was dissolved into either 100 mM Tris-HCl (pH 7.5) or 100 mM Tris-HCl containing 10% pullulan. These pullulan solutions, with or without HSA, were carefully pipetted onto the quartz slides (500 μL/slide) and allowed to dry overnight at 21° C. and 48% RH in order to produce the film samples.
Fluorescence measurements were acquired using a Cary Eclipse fluorescence spectrophotometer. Solution samples were measured in quartz cuvettes and continuously stirred throughout the experiments. […]
For fluorescence emission spectra, samples were excited at 295 nm (to ensure that the light was absorbed almost entirely by the lone tryptophanyl residue) and emission was collected at 310-450 nm in 1 nm increments, using a 5-nm bandpass for both excitation and emission paths and an integration time of 0.1 s. […]
For thermal denaturation studies, the temperature was raised in ˜5° C. increments from 20° C. to 90° C. and allowed to equilibrate at each temperature for at least 5 min. The temperature in the cuvette was measured directly with a thermistor probe. […] Emission scans are measured in relative fluorescence units, RFU, and all values are reported as the average of three separate samples.

Consider Human serum albumin, for which the “increase of unfolding temperature” value amounted to 20 °C.
